According to PubChem BioAssay AID2676 (National Center for Advancing Translational Sciences (NCATS), 2010):
Values joined by “and” are separate entries in the source; they are usually repeats but may differ in a detail not shown here. Equal entries are not always repeated. Only a part is listed here, and it is no random draw. Active and inactive are the calls of the source. The call rests on the fitted dose curve; in most records, active means well fitted activation curve with a large enough effect; inconclusive means small, poorly fitted or top-dose-only effect; inactive means flat fitted curve, though single readings scatter.

Sequences of proteins named here, by UniProt entry; tags and fusion partners are left off. A change or cut given only in a name is not applied to a line headed by its entry.
UniProt Q9HBX9: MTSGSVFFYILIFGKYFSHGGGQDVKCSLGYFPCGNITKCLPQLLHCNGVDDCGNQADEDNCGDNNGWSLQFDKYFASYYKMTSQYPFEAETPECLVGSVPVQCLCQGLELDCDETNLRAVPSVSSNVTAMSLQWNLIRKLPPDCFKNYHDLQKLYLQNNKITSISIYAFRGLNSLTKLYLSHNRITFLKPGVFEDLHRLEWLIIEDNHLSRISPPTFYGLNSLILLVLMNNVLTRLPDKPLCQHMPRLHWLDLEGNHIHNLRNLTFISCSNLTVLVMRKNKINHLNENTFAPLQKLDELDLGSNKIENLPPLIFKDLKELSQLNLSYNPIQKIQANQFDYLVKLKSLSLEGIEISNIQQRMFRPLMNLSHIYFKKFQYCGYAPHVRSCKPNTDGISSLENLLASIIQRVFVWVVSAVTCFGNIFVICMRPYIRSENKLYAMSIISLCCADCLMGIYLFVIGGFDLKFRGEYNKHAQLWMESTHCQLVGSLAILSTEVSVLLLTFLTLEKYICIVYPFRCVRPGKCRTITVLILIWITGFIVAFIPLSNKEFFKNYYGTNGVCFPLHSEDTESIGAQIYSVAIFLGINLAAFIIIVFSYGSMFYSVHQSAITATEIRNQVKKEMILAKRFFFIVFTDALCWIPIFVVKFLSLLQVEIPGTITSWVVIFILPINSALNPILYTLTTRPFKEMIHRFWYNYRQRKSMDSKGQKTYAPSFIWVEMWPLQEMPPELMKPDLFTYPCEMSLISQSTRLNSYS

Target: Relaxin receptor 1 (Homo sapiens) (UniProt Q9HBX9)
Assay: qHTS Assay for Agonists of the Relaxin Receptor RXFP1; further: nearly all actives have a fitted effect of over 60% in size
Details: HEK293T-RXFP1 cAMP TR-FRET, 30 min, percent of porcine relaxin response, buffer zero; at 57.5 µM (top of the series)
From the text: NIH Chemical Genomics Center [NCGC] NIH Molecular Libraries Probe Production Centers Network [MLPCN] MLPCN Grant: R03 MH085705-01A1 Assay Submitter (PI): Alexander Agoulnik NCGC Assay Overview: The relaxin hormone is involved in the variety of biological functions in normal tissues and diseases. The role of relaxin is well-established in female reproduction and parturition, mammary gland and endometrial development, maintenance of myometrial quiescence during pregnancy. Relaxin signaling through its G protein-coupled receptor (GPCR) RXFP1 results in ECM remodeling through regulation of collagen deposition, cell invasiveness, proliferation and overall tissue homeostasis. […] Recombinant human relaxin (rhRlx) is currently being tested in clinical trials as a protective agent in congestive heart failure, in treating severe preeclampsia, and as an anti-fibrotic agent in systemic sclerosis. Upon relaxin binding RXFP1 activation leads to the activation of adenylate cyclase (AC) via Gs. cAMP will activate PKA, which phosphorylates many signaling proteins. Thus, detection of cAMP increase is an easy and reliable indication of relaxin receptor activation. To screen for agonists of the relaxin receptor, a HEK293T cell line stably transfected with RXFP1 was used. RXFP1 activation was assayed by changes in cAMP levels as detected with a time-resolved fluorescence energy transfer (TR-FRET) cAMP detection kit.
NCGC Assay Protocol Summary: This is a cell-based assay for cAMP second messenger response to screen for agonists of the RXFP1 receptor. The assay was conducted in the presence of a PDE4 inhibitor (Ro 20174). The cells were lysed and the cAMP levels were measured with a TR-FRET cAMP kit. Presence of cAMP in the cell lysate disrupts binding between the cryptate-labeled anti-cAMP and d2-labeled cAMP pair, leading to a decrease in the TR-FRET signal. Data were normalized to the controls for basal activity (buffer only) and 100% activity (29 nM porcine relaxin). The EC50 values were determined from concentration-response data modeled with the standard Hill equation 1536-well assay protocol for the HEK293 RXFP1 cAMP assay: (1) Add 3 ul HEK293 RXFP1 cell culture. 2000 cells/well in DMEM/F12, 10% FBS, 1x Pen/Strep (dispensed offline with MultiDrop Combi). (2) Incubate 16-24 hr at 37C, 5% CO2. (3) Add 1 ul 400uM Ro20174 in DPBS, 0.05% BSA, 0.005% Tween 20. (3) Add 23 nl compounds in DMSO solution. Final concentration was 0.5 - 58 uM. (4) Incubate 30 min at 37C, 5% CO2. (5) Add 1 ul cAMP-d2 in lysis buffer (HTRF cAMP HiRange kit, CisBio). (6) Add 1 ul anti-cAMP antibody-cryptate in lysis buffer (HTRF cAMP HiRange kit, CisBio). (7) Incubate 30 min at room temperature. (6) Detect the assay plate in a ViewLux plate reader (PerkinElmer) with Ex=320 nm, Em1=615 nm and Em2=665 nm. Keywords: relaxin, RXFP1, RXFP2, G-protein coupled receptor, cAMP, agonist, high throughput screening, MLSMR, MLSCN, NIH Roadmap, qHTS and NCGC
On the % scale 0 is the no-effect control and ±100 the full control effect.

Row | SMILES | activation
1 | O=P(Nc1nccs1)(c1ccccc1)c1ccccc1 | inactive: -0.619%
2 | CC(C)C(=O)NC(Sc1ccccc1)C(Cl)(Cl)Cl (centres undefined) | inactive: 1.28%
3 | c1nnnn1CCn1cnnn1 | inactive: 0.352%
4 | CN(C)C1(CNC(=O)c2ccc(Cl)c(S(N)(=O)=O)c2)CCCCC1 | inactive: 4.04%
5 | O=P(Nc1ccccn1)(c1ccc(Br)cc1)c1ccc(Br)cc1 | inactive: 1.9%
6 | O=P(Nc1nc2ccccc2s1)(c1ccccc1)c1ccccc1 | inactive: -0.574%
7 | C[C@H]1OP(=O)(Oc2ccccc2)[C@H](O)[C@H](O)[C@H]1N=[N+]=[N-] (some centres undefined) | inactive: 3.87%
8 | O=[N+]([O-])c1ncn(CCn2cnc([N+](=O)[O-])n2)n1 | inactive: 0%
9 | CC(=O)NC(SC(=S)N(C)C)C(Cl)(Cl)Cl (centres undefined) | inactive: 2.9%
10 | O=[N+]([O-])c1ccc(O)c(/C=N/Nc2ccc([N+](=O)[O-])cc2[N+](=O)[O-])c1 | inactive: 0.173%
11 | O=[As](O)(c1ccccc1)c1ccc(O)cc1 | inactive: 2.37%
12 | Nc1ccc([As](=O)(O)c2ccc([N+](=O)[O-])cc2)cc1 | inactive: -1.57%
13 | C(Cc1nn[nH]n1)Cc1nn[nH]n1 | inactive: -1.55%
14 | O=C(NC1CCS(=O)(=O)C1)NP(=S)(Oc1ccccc1)Oc1ccccc1 (centres undefined) | inactive: -0.543%
15 | CCNC(=S)/N=C(\N)N[N+](=O)[O-] | inactive: -0.697%
16 | c1ccc(-c2nn[nH]n2)c(-c2nn[nH]n2)c1 | inactive: -0.261%
17 | CCOC(=O)NC(Sc1ccccc1)C(Cl)(Cl)Cl (centres undefined) | inactive: 1.49%
18 | Cc1ccc(NP(=O)(Oc2cccc(C)c2)Oc2cccc(C)c2)nc1 | inactive: -4.61%
19 | COC(=O)c1cc2c(s1)N=C(c1ccccc1)N(C)P2(=O)N1CCOCC1 (centres undefined) | inactive: 0.488%
20 | Cc1ccc(OP(=O)(Nc2ccccn2)Oc2ccc(C)cc2)cc1 | inactive: 2.85%
21 | CC(=O)NC(SC(=S)N(CC(C)C)CC(C)C)C(Cl)(Cl)Cl (centres undefined) | inactive: 0.781%
22 | O=C(OC1CN2CCC1CC2)c1ccccc1 (centres undefined) | inactive: -1.84%

Row | SMILES | activation
23 | CCC(=O)N1C2C3N(C(=O)CC)C1C1N(C(=O)CC)C(C(N1C(=O)CC)N3C(=O)CC)N2C(=O)CC | inactive: -0.286%
24 | Cc1ccccc1OP(=O)(Nc1ccccn1)Oc1ccccc1C | inactive: 1.54%
25 | CN(C)C(=O)Oc1noc2ccccc12 | inactive: 2.61%
26 | O=c1c2cc([N+](=O)[O-])ccc2[nH]c2c([N+](=O)[O-])cc([N+](=O)[O-])cc12 | inactive: 4.84%
27 | O=P1(Nc2nc3ccc(Cl)cc3s2)COc2ccccc2O1 (centres undefined) | inactive: -0.909%
28 | CCOc1ccc(C2=NCC(CBr)S2)cc1 (centres undefined) | inactive: -0.718%
29 | CC(C)(C)C(=O)NC(Sc1ccccc1)C(Cl)(Cl)Cl (centres undefined) | inactive: -1.03%
30 | CC(=O)c1ccc(N2CC2c2ccncc2)cc1 (centres undefined) | inactive: 4.75%
31 | Cc1ccccc1CN(C)C(=O)COC(=O)C(O)(c1ccccc1)c1ccccc1 | inactive: 1.26%
32 | C[C@@H]1C=CCP(=O)(Oc2ccccc2)O1 (some centres undefined) | inactive: 0%
33 | C[C@H]1OP(=O)(Oc2ccccc2)C[C@@H]2O[C@@H]21 (some centres undefined) | inactive: -1.45%
34 | CC(=O)Nc1ccc([As](=O)(O)O)c(O)c1 | inactive: -1.09%
35 | CC(=O)Nc1ccc(Oc2c([N+](=O)[O-])cc([N+](=O)[O-])cc2[N+](=O)[O-])cc1 | inactive: -1.2%
36 | NC(=O)c1cc([N+](=O)[O-])cc([N+](=O)[O-])c1N | inactive: 0.635%
37 | CN(C(=O)Cc1ccc(Cl)c(Cl)c1)[C@H]1CCCC[C@H]1N1CCCC1 | inactive: -1.26%
38 | Cc1ccc(N/C(=N/P(=O)(N2CCOCC2)N2CCOCC2)N2CCOCC2)cc1 | inactive: 1.39%
39 | COc1ccccc1OP(=O)(Nc1ccc(C)cn1)Oc1ccccc1OC | inactive: 0.742%
40 | Cc1ccc(OP(=O)(Nc2nccs2)Oc2ccc(C)cc2)cc1 | inactive: 1.75%
41 | Clc1ccc(Cl)c(NC2=NCC(CBr)S2)c1 (centres undefined) | inactive: -1.32%
42 | CN1CCCC(OC(=O)C(c2ccccc2)c2ccccc2)C1 (centres undefined) | inactive: 0.575%
43 | CC(C)CC(=O)NC(Sc1ccc(Cl)cc1)C(Cl)(Cl)Cl (centres undefined) | inactive: -3.33%
44 | Nc1cc(N)c2nonc2c1[N+](=O)[O-] | inactive: 5.75%

Row | SMILES | activation
45 | Oc1ccccc1CNc1ccccn1 | inactive: 4.18%
46 | Cc1c2non([O-])c-2c(C)[n+](=O)[n+]1[O-] | inactive: 0.0133%
47 | O=C(NC(Sc1ccncn1)C(Cl)(Cl)Cl)c1ccccc1 (centres undefined) | inactive: 1.64%
48 | O=C(O)c1ccccc1[As](=O)(O)O | inactive: 5.07%
49 | CC(=O)Nc1ccc([As](=O)(O)O)cc1 | inactive: 2.06%
50 | O=P(Nc1nc2ccc(Cl)cc2s1)(c1ccccc1)c1ccccc1 | inactive: 3.95%
51 | CCOP(=O)(Nc1ccccc1)OCC | inactive: 0.0833% and inactive: -0.323%
52 | Cc1cc(SC(NC(=O)c2ccc(F)cc2)C(Cl)(Cl)Cl)ncn1 (centres undefined) | inactive: 1.07%
53 | Cc1ccc(NP(=O)(Oc2ccccc2F)Oc2ccccc2F)nc1 | inactive: 4.53%
54 | O=[N+]([O-])c1cc([N+](=O)[O-])c(CCN2CCOCC2)c([N+](=O)[O-])c1 | inactive: 0.868%
55 | CCN(N=Nc1nonc1N)c1nonc1N | inactive: 0.116%
56 | Nc1cccc2ccc([As](=O)(O)O)cc12 | inactive: 7.33%
57 | O=C(Nc1cc([As](=O)(O)O)ccc1O)c1ccccc1 | inactive: 0.224%
58 | CC(C)(C)C(=O)NC(Sc1ccncn1)C(Cl)(Cl)Cl (centres undefined) | inactive: -1.83%
59 | O=[N+]([O-])c1ncn(CCn2ncnc2[N+](=O)[O-])n1 | inactive: -0.307%
60 | O=[N+]([O-])c1cccc(NC2=NCC(CBr)S2)c1 (centres undefined) | inactive: 2.44%
61 | O=C(O)CNc1ccc([As](=O)(O)O)cc1 | inactive: 0.801%
62 | COc1ccc(C2=NCC(CBr)S2)cc1 (centres undefined) | inactive: -0.481%
63 | CC(=O)N1C2C3N(C(C)=O)C1C1N(C(C)=O)C(C(N1C(C)=O)N3C(C)=O)N2C(C)=O | inactive: 0.238%
64 | O=[N+]([O-])c1cccc2n[nH]nc12 | inactive: -1.34%
